Measured values as given in PMC8092268, “Quorum Sensing in Streptococcus mutans Regulates Production of Tryglysin, a Novel RaS-RiPP Antimicrobial Compound” (mBio, 2021).
No end group written: not given here.

Experiments:
S. mutans UA159 = test: CFU/ml assay (bacteriostatic or bactericidal); type: cell-based, Streptococcus mutans; details: 100 nM, CDM, one-way ANOVA with Sidak's posttest
Procedure: To perform CFU/milliliter assays, S. mutans was grown overnight, washed, and resuspended in CDM as outlined above in the “Luciferase assays with chromosomal reporters” section, with the exception that replicate tubes for harvest at each time point for both no-tryglysin and tryglysin-treated conditions were inoculated from bacterial cultures resuspended overnight. […] At this time point (0 h) and at 1, 2, 4, 6, 8 and 24 h after tryglysin addition, a set of no-tryglysin and tryglysin-treated tubes were harvested. At each time point, 100 μl from each tube in a set was harvested and diluted 1:10 successively in fresh THY. Dilutions from 10^−3 to 10^−6 (depending on the time point) were plated as follows: for each dilution, 10 μl was plated in triplicate on THY agar plates and allowed to drip vertically down the plate. This allowed for the spread of S. mutans colonies for later CFU/ml counting. After each dilution plating, plates were placed at 37°C and incubated for 48 h. […] After 2 days of incubation, colonies were counted for each time point, replicate, and condition, and the number of CFU/milliliter was calculated. Drip plates were considered to have accurate counts if colonies were between 10 and 150 colonies per drip. […] Statistical analysis was performed using a one-way ANOVA with Sidak’s multiple comparison posttest on Graph Pad Prism.

S. sanguinis ATCC 10556 = test: growth inhibition by tryglysins; type: cell-based, Streptococcus sanguinis; details: 100 nM, CDM, Fig. S5; 'to a lower degree' than for S. agalactiae
Procedure: (§1) For experiments to examine the effect of tryglysins, bacterial strains were grown from prestored glycerol stocks at −80°C and inoculated into THY broth. […] To monitor growth, OD600 was measured using a GENESYS 30 Vis spectrophotometer every hour.

S. agalactiae A909 = test: growth inhibition by tryglysins; type: cell-based, Streptococcus agalactiae; details: 100 nM, CDM, Fig. S5
Procedure: as §1

S. bovis JB1 = test: growth inhibition by tryglysins; type: cell-based, Streptococcus bovis; details: 100 nM, CDM, Fig. S5; 'to a lower degree' than for S. agalactiae
Procedure: as §1

VNCWGKH (sidechain bridge or staple) [tryglysin B, 7-mer macrocyclic peptide VNCWGKH carrying the tetrahydro[5,6]benzindole modification, predicted product of the S. mutans wgk cluster]
CFU/milliliter vs untreated (S. mutans UA159; 6 h): statistically significant lower CFU/milliliter
CFU/milliliter vs untreated (S. mutans UA159; 8 h): statistically significant lower CFU/milliliter

VNSWGKH (also: sidechain bridge or staple (positions not given here)) [tryglysin A, macrocyclic 7-mer RiPP from S. ferus, VNSWGKH with tetrahydro[5,6]benzindole modification]
inhibitory activity relative to variant B (S. sanguinis ATCC 10556): greater inhibitory activity
inhibitory activity relative to variant B (S. agalactiae A909): greater inhibitory activity
inhibitory activity relative to variant B (S. bovis JB1): greater inhibitory activity
CFU/milliliter vs untreated (S. mutans UA159; 6 h): statistically significant lower CFU/milliliter
CFU/milliliter vs untreated (S. mutans UA159; 8 h): statistically significant lower CFU/milliliter
